Each structure is given as a SMILES string. This is a selection; strong and weak results do not stand in their true shares. Some tests of the compounds listed are not included; inactive here does not mean inactive elsewhere. Activity calls are given as the source filed them.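 The calls were made as follows: active = inhibition above the screen-wide mean plus 3 SD, limit set per campaign (cut at about 26% in these data); inactive = the rest.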

Amino acid sequences for entries named in this document (tags omitted).
UniProt O95372, whole entry: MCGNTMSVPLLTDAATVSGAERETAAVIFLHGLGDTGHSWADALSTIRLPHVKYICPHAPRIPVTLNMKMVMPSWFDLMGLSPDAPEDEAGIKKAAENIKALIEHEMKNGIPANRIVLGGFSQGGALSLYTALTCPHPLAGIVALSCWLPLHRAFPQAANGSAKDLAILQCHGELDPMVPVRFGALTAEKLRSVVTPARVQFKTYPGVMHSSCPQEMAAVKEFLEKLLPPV

In the test the target is Acyl-protein thioesterase 2 (Homo sapiens) (UniProt O95372). As to the kind of experiment: inhibition of human lysophospholipase 2 – biochemical, fluorescence polarization, FP-Rh probe ABPP, counter-screen for PME1 inhibitor project, primary screen (AID 2177).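 Also: 0% = LYPLA2 with DMSO and 100% = wells lacking LYPLA2 enzyme.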 As to conditions: recombinant LYPLA2, FP-Rh probe fluorescence polarization; at 5.9 µM; hits give high values. For orientation: In fluorescence polarisation assays a small probe gives low polarisation when free and higher when bound to something large.
For `CN(C)C1(CNC(=O)c2ccc(Br)cc2)CCCCC1`, the inhibition (usually the drop in the measured response relative to a control, in per cent) is inactive: 5.46%. To `COc1cc(C(=O)NCC2(N(C)C)CCCCC2)c([N+](=O)[O-])cc1OC` belongs inactive: 0.87%.

For the compound `COc1cccc(C(=O)NCC2(N3CCCCC3)CCCCC2)c1`, the inhibition is inactive: 6.3%.

For `COc1ccc(Cl)cc1C(=O)NCC1(N(C)C)CCCCC1`, the inhibition is inactive: 1.55%.

As for `O=C(NCC1(N2CCCCC2)CCCCC1)c1cccc(Cl)c1`, the inhibition was inactive: -7.26%. To `O=C(OC1CN2CCC1CC2)C(CO)(c1ccccc1)c1ccccc1` (centres undefined) belongs inactive: -3.76%; to `COc1ccc(Br)c(C(=O)NCC2(N3CCCCC3)CCCCC2)c1`, inactive: 2.84%; to `CC(C)Oc1ccc(C(=O)NCC2(N(C)C)CCCCC2)cc1`, inactive: 0.85%.

With `CN(C)c1cccc(C(=O)NCC2(N(C)C)CCCCC2)c1`, the inhibition is inactive: 4.6%.

Take `O=C(NCC1(N2CCCCC2)CCCCC1)c1cc([N+](=O)[O-])ccc1Cl`: the inhibition is inactive: 2.3%. The same measure for `CN1[C@@H]2CC[C@H]1CC(OC(=O)C(O)(c1ccccc1)c1ccccc1)C2` (some centres undefined): inactive: -2.49%; for `CCN(CC)CC(C)C(C)OC(=O)C(O)(c1ccccc1)c1ccccc1` (centres undefined): inactive: 4.55%; for `COc1cc(SC)ccc1C(=O)NCC1(N(C)C)CCCCC1`: inactive: 2.83%.

Turning to `CC(C)N1C(=O)CC2(CCN(CCOC(=O)C(O)(c3ccccc3)c3ccccc3)CC2)C1=O`, the inhibition was inactive: -2.52%. To `Cc1ccc(C(=O)NCC2(N3CCCCC3)CCCCC2)cc1` belongs inactive: -0.54%; to `Cc1ccccc1C(=O)NCC1(N2CCCCC2)CCCCC1`, inactive: -1.98%; to `CN(C)C1CCCC1OC(=O)C(O)(c1ccccc1)c1ccccc1` (centres undefined), inactive: 6.46%. To `CN(C)c1ccc(C(=O)NCC2(N(C)C)CCCCC2)cc1` belongs inactive: 5.46%. To `C=CCN1CCN(CCOC(=O)C(O)(c2ccccc2)c2ccccc2)CC1` belongs inactive: 5.09%; to `O=C(NCC1(N2CCCCC2)CCCCC1)c1cc(F)c(F)cc1Cl`, inactive: 3.08%; to `COc1ccc(C(=O)NCC2(N(C)C)CCCCC2)cc1`, inactive: 2.1%. `Cc1cc(C(=O)NCC2(N3CCCCC3)CCCCC2)ccc1[N+](=O)[O-]`: the inhibition is inactive: -5.42%.

Turning to `CCN1CCCC(OC(=O)C2(O)c3ccccc3C=Cc3ccccc32)C1` (centres undefined), the inhibition was inactive: -9.25%.

As for `O=C(NCC1(N2CCCCC2)CCCCC1)c1cccc(Br)c1`, the inhibition is inactive: -3.63%.

Source of the values: PubChem BioAssay AID2177 (The Scripps Research Institute Molecular Screening Center, 2009).
